From PubChem BioAssay AID493244 (The Scripps Research Institute Molecular Screening Center, 2011)
The list shows a part of the results, in another mix than the full data. Activity calls are given as the source filed them.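 Rule for the calls: active = inhibition above the mean inhibition of all tested compounds plus 3 SD (cut at about 17% in these data); inactive = the rest.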

The molecules below were run against Troponin I, cardiac muscle (Homo sapiens) + Troponin T, cardiac muscle (Homo sapiens) + Troponin C, slow skeletal and cardiac muscles (Homo sapiens) (UniProt P19429+P45379+P63316) (assay: calcium desensitizers of cardiac thin filaments – biochemical, IANBD-TnC fluorescence, EC70 calcium, primary screen (AID 493244;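 note: assay run at fixed EC70 calcium of 1.6 mM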)). Settings: IANBD-labeled cardiac RTF, Ca2+ fluorescence; at 7.15 µM; hits give high values.
For `O=P(Nc1nc2ccc(Cl)cc2s1)(c1ccccc1)c1ccccc1`, the inhibition was inactive: 4.9%. In the case of `O=C(O)c1ccccc1[As](=O)(O)O`, the inhibition is reported as inactive: 1.09%. With `CC(=O)Nc1ccc([As](=O)(O)O)cc1` the inhibition was inactive: -14.8%. For `CCCC1OP(N)(=O)OCC1CC` (stereo not given), the inhibition was inactive: 0.3%. For `CCOP(=O)(Nc1ccccc1)OCC`, the inhibition was inactive: -19%. `Cc1cc(SC(NC(=O)c2ccc(F)cc2)C(Cl)(Cl)Cl)ncn1` (stereo not given) was tested, and the inhibition was inactive: 2.72%. In the case of `CN(C(=O)Cc1ccc(Cl)c(Cl)c1)[C@H]1CCCC[C@@H]1N1CCCC1`, the inhibition is reported as inactive: -4.78%. For `Cc1ccc(NP(=O)(Oc2ccccc2F)Oc2ccccc2F)nc1`, the inhibition was inactive: -0.45%. For `Nc1cccc2ccc([As](=O)(O)O)cc12`, the inhibition was inactive: -3.61%. For `CCN(N=Nc1nonc1N)c1nonc1N`, the inhibition was inactive: 2.69%. In the case of `CN(C(=O)Cc1ccc(Cl)c(Cl)c1)[C@H]1CCCC[C@H]1N1CCCC1`, the inhibition is reported as inactive: 6.56%. With `Cc1ccc(N/C(=N/P(=O)(N2CCOCC2)N2CCOCC2)N2CCOCC2)cc1` the inhibition was inactive: -6.79%. In the case of `NC(=O)c1cc([N+](=O)[O-])cc([N+](=O)[O-])c1N`, the inhibition is reported as inactive: 0.61%. `Clc1ccc(Cl)c(NC2=NCC(CBr)S2)c1` (stereo not given) was tested, and the inhibition was inactive: -2.22%. `CN1CCCC(OC(=O)C(c2ccccc2)c2ccccc2)C1` (stereo not given) was tested, and the inhibition was inactive: -4.74%. With `COc1ccccc1OP(=O)(Nc1ccc(C)cn1)Oc1ccccc1OC` the inhibition was inactive: 10.4%. For `Oc1ccccc1CNc1ccccn1`, the inhibition was inactive: -1.8%. `O=C(NC(Sc1ccncn1)C(Cl)(Cl)Cl)c1ccccc1` (stereo not given) was tested, and the inhibition was inactive: -3.82%. `CC(C)CC(=O)NC(Sc1ccc(Cl)cc1)C(Cl)(Cl)Cl` (stereo not given) was tested, and the inhibition was inactive: 2.69%. In the case of `Nc1cc(N)c2nonc2c1[N+](=O)[O-]`, the inhibition is reported as inactive: 3.25%. For `COc1ccc(C2=NCC(CBr)S2)cc1` (stereo not given), the inhibition was inactive: -3.98%. With `Cc1ccc(NP(=O)(Oc2ccccc2)Oc2ccccc2)nc1` the inhibition was inactive: -11%. For `O=[N+]([O-])c1cc([N+](=O)[O-])c(CCNc2ccccc2)c([N+](=O)[O-])c1`, the inhibition was inactive: -11.4%. In the case of `CCc1nc2c(n1)c1c(non1O)c1c2no[n+]1[O-]`, the inhibition is reported as inactive: -7.46%. With `CC(=O)N1C2C3N(C(C)=O)C1C1N(C(C)=O)C(C(N1C(C)=O)N3C(C)=O)N2C(C)=O` the inhibition was inactive: -9.55%. With `O=[N+]([O-])c1cccc2n[nH]nc12` the inhibition was inactive: -5.59%. `CCN(/C(=N/P(=O)(N1CCOCC1)N1CCOCC1)N1CCOCC1)c1ccc(OC)cc1` was tested, and the inhibition was inactive: 3.09%. `Nc1ccc([As](=O)(O)c2ccc(N)cc2)cc1` was tested, and the inhibition was inactive: 4.14%. In the case of `C[N+]1=C2C=CC=CC=C2SC12C([N+](=O)[O-])=CC([N+](=O)[O-])=C[C-]2[N+](=O)[O-]` (stereo not given), the inhibition is reported as inactive: 1.95%. In the case of `CC1CCN(C(=O)Oc2c(Cl)cc(Cl)c3cccnc23)CC1`, the inhibition is reported as inactive: 6%. For `CC(C)=N/N=C(\N)N[N+](=O)[O-]`, the inhibition was inactive: 8.27%. `CN(C)C(=O)OCCc1n(C)cc[n+]1C` was tested, and the inhibition was inactive: -22.4%. For `O=P1(N(CCCl)CCCl)OCCCS1` (stereo not given), the inhibition was inactive: 0.33%. For `O=C(Nc1cc([As](=O)(O)O)ccc1O)c1ccccc1`, the inhibition was inactive: -7.53%. With `O=[N+]([O-])c1ncn(CCn2ncnc2[N+](=O)[O-])n1` the inhibition was inactive: -0.9%. With `CC(C)(C)C(=O)NC(Sc1ccncn1)C(Cl)(Cl)Cl` (stereo not given) the inhibition was inactive: -8.03%. With `O=C(O)CNc1ccc([As](=O)(O)O)cc1` the inhibition was inactive: -5.03%. For `O=[N+]([O-])c1cccc(NC2=NCC(CBr)S2)c1` (stereo not given), the inhibition was inactive: -0.37%. For `COC(=O)C1(C)COP(=O)(Nc2ccccc2)OC1` (stereo not given), the inhibition was inactive: -3.85%. In the case of `CN(C)C1(CNC(=O)c2ccc(Cl)c(S(N)(=O)=O)c2)CCCCC1`, the inhibition is reported as inactive: 3.91%. For `O=P(Nc1ccccn1)(c1ccc(Br)cc1)c1ccc(Br)cc1`, the inhibition was inactive: 1.63%. For `COc1ccc(N)c([N+](=O)[O-])c1[N+](=O)[O-]`, the inhibition was inactive: 1.41%. `O=P(Nc1nc2ccccc2s1)(c1ccccc1)c1ccccc1` was tested, and the inhibition was inactive: 3.56%. In the case of `C[C@H]1OP(=O)(Oc2ccccc2)[C@H](O)[C@H](O)[C@H]1N=[N+]=[N-]` (stereo not given in full), the inhibition is reported as inactive: -3.05%. For `O=[As](O)(c1ccccc1)c1ccc(O)cc1`, the inhibition was inactive: 6.31%. `CC(=O)NC(SC(=S)N(C)C)C(Cl)(Cl)Cl` (stereo not given) was tested, and the inhibition was inactive: -3.82%. With `O=[N+]([O-])c1ncn(CCn2cnc([N+](=O)[O-])n2)n1` the inhibition was inactive: -11%. With `O=[N+]([O-])c1ccc(O)c(/C=N/Nc2ccc([N+](=O)[O-])cc2[N+](=O)[O-])c1` the inhibition was inactive: -11.9%. For `O=C(OC1CN2CCC1CC2)c1cccc(Cl)c1` (stereo not given), the inhibition was inactive: -2.24%. In the case of `Nc1ccc([As](=O)(O)c2ccc([N+](=O)[O-])cc2)cc1`, the inhibition is reported as inactive: -5.48%. With `C(Cc1nn[nH]n1)Cc1nn[nH]n1` the inhibition was inactive: -2.42%. `O=P(Nc1nccs1)(c1ccccc1)c1ccccc1` was tested, and the inhibition was inactive: -19.8%. With `CC(C)C(=O)NC(Sc1ccccc1)C(Cl)(Cl)Cl` (stereo not given) the inhibition was inactive: -5.47%. With `c1nnnn1CCn1cnnn1` the inhibition was inactive: -3.65%. `O=P1(Nc2nc3ccc(Cl)cc3s2)COc2ccccc2O1` (stereo not given) was tested, and the inhibition was inactive: -0.53%. For `CCOc1ccc(C2=NCC(CBr)S2)cc1` (stereo not given), the inhibition was inactive: 8.3%. `CC(C)(C)C(=O)NC(Sc1ccccc1)C(Cl)(Cl)Cl` (stereo not given) was tested, and the inhibition was inactive: -12.2%. `CCc1cc(O)c([N+](=O)[O-])c(C)c1[N+](=O)[O-]` was tested, and the inhibition was inactive: -4.23%. For `Cc1ccccc1CN(C)C(=O)COC(=O)C(O)(c1ccccc1)c1ccccc1`, the inhibition was inactive: 1.89%. In the case of `C[C@@H]1C=CCP(=O)(Oc2ccccc2)O1` (stereo not given in full), the inhibition is reported as inactive: 9.38%. For `C[C@H]1OP(=O)(Oc2ccccc2)C[C@@H]2O[C@@H]21` (stereo not given in full), the inhibition was inactive: -11.4%. In the case of `N#C/C(=C\c1ccc(N(CCBr)CCBr)cc1)C(N)=O`, the inhibition is reported as inactive: 2.92%. In the case of `CC(=O)c1ccc(N2CC2c2ccncc2)cc1` (stereo not given), the inhibition is reported as inactive: -5.49%. In the case of `COC(=O)C1(C)COP(=O)(NCc2ccccc2)OC1` (stereo not given), the inhibition is reported as inactive: -2.15%. With `CC(=O)Nc1ccc([As](=O)(O)O)c(O)c1` the inhibition was inactive: 5.91%. With `CC(=O)Nc1ccc(Oc2c([N+](=O)[O-])cc([N+](=O)[O-])cc2[N+](=O)[O-])cc1` the inhibition was inactive: 1.78%. With `O=C(NC1CCS(=O)(=O)C1)NP(=S)(Oc1ccccc1)Oc1ccccc1` (stereo not given) the inhibition was inactive: -4.1%. For `CCNC(=S)/N=C(\N)N[N+](=O)[O-]`, the inhibition was inactive: -0.44%. With `O=P1(N(CCCl)CCCl)OCCC2CCCCN21` (stereo not given) the inhibition was inactive: -6.02%. In the case of `O=C(OC1CN2CCC1CC2)c1ccccc1` (stereo not given), the inhibition is reported as inactive: -1.69%. `CCC(=O)N1C2C3N(C(=O)CC)C1C1N(C(=O)CC)C(C(N1C(=O)CC)N3C(=O)CC)N2C(=O)CC` was tested, and the inhibition was inactive: -5.13%. For `COC(=O)c1cc2c(s1)N=C(c1ccccc1)N(C)P2(=O)N1CCOCC1` (stereo not given), the inhibition was inactive: -11.6%. For `CC(=O)NC(SC(=S)N(CC(C)C)CC(C)C)C(Cl)(Cl)Cl` (stereo not given), the inhibition was inactive: -1.36%. With `Cc1ccc(OP(=O)(Nc2ccccn2)Oc2ccc(C)cc2)cc1` the inhibition was inactive: -4.58%. In the case of `Cc1ccccc1OP(=O)(Nc1ccccn1)Oc1ccccc1C`, the inhibition is reported as inactive: 3.06%. In the case of `CC(NC(=O)COC(=O)C(O)(c1ccccc1)c1ccccc1)c1ccccc1` (stereo not given), the inhibition is reported as inactive: -13.4%. `CN(C)C(=O)Oc1noc2ccccc12` was tested, and the inhibition was inactive: 3.35%. In the case of `O=c1c2cc([N+](=O)[O-])ccc2[nH]c2c([N+](=O)[O-])cc([N+](=O)[O-])cc12`, the inhibition is reported as inactive: -0.63%. `CCOP1(=S)c2c(C)nn(CCC#N)c2N=C(c2ccccc2F)N1C` (stereo not given) was tested, and the inhibition was inactive: 1.35%. In the case of `O=P(Nc1nccs1)(c1ccccc1)c1nc2ccccc2s1` (stereo not given), the inhibition is reported as inactive: -1.72%. With `O=P(Nc1nccs1)(Oc1ccccc1)Oc1ccccc1` the inhibition was inactive: -0.14%. `CS(=O)(=O)c1cc([N+](=O)[O-])c2no[n+]([O-])c2c1` was tested, and the inhibition was inactive: -21.7%. In the case of `O=C(O)COc1ccc([As](=O)(O)O)cc1[N+](=O)[O-]`, the inhibition is reported as inactive: -5.44%. With `Nc1ccccc1[As](=O)(O)c1ccccc1` the inhibition was inactive: 2.63%. `NC(=O)Nc1ccc([As](=O)(O)O)cc1` was tested, and the inhibition was inactive: 2.02%. In the case of `N#CCCN(C(=O)COC(=O)C(O)(c1ccccc1)c1ccccc1)c1ccc(F)cc1`, the inhibition is reported as inactive: -2.31%. With `CCOP1(=S)c2c(C)nn(CCC#N)c2N=C(c2ccc(F)cc2)N1C` (stereo not given) the inhibition was inactive: -14.6%. `CN(C(=O)Cc1ccccc1)[C@@H]1CC[C@]2(CCCO2)C[C@H]1N1CCCC1` was tested, and the inhibition was inactive: 3.59%. With `CN(C)C(=O)c1cc([N+](=O)[O-])cc2c1-c1c(cc([N+](=O)[O-])cc1[N+](=O)[O-])C2=O` the inhibition was inactive: -4.92%. With `O=[N+]([O-])c1ccc2c(c1)nnn2O` the inhibition was inactive: 1.07%. `CN(C(=O)Cc1ccc(Cl)c(Cl)c1)[C@H]1CC[C@@]2(CCCO2)C[C@@H]1N1CCCC1` was tested, and the inhibition was inactive: 13.2%. In the case of `O=C(OC1CN2CCC1CC2)c1ccc(Cl)cc1` (stereo not given), the inhibition is reported as inactive: -4.07%. With `COc1cc(C(=O)NCC2(N3CCOCC3)CCCCC2)cc(Cl)c1OC(C)C` the inhibition was inactive: 13.8%. For `O=[As](O)(O)c1cccnc1`, the inhibition was inactive: 1.11%. With `CS(=O)(=O)c1ccc(Cl)c(NC(=O)COC(=O)C(O)(c2ccccc2)c2ccccc2)c1` the inhibition was inactive: 0.19%. `O=[As](O)(c1cccc(O)c1)c1cccc(O)c1` was tested, and the inhibition was inactive: 0.22%. With `Cc1cccc(OCC(=O)OC2CN3CCC2CC3)c1` (stereo not given) the inhibition was inactive: 0.13%. With `Cc1ccc(NCCc2c([N+](=O)[O-])cc([N+](=O)[O-])cc2[N+](=O)[O-])cc1` the inhibition was inactive: -2.66%. With `Nc1cccc2c([As](=O)(O)O)cccc12` the inhibition was inactive: -18.6%. `CCCOP(=S)(Nc1nc(N)cc(=O)[nH]1)OCCC` was tested, and the inhibition was inactive: 1.2%.
